Laboratory results: PMC6287471 (International Journal for Parasitology: Drugs and Drug …, 2018)

Tests used:
Assay type in all cases: cell-based
[1] = target: T1, Hco-ACC-2 F200W (Haemonchus contortus, UniProt A0A219KWM7, F200W); experiment: Two-electrode voltage clamp of Hco-ACC-2 F200W mutant in Xenopus laevis oocytes
T1 sequence (A0A219KWM7 18-443 F200W): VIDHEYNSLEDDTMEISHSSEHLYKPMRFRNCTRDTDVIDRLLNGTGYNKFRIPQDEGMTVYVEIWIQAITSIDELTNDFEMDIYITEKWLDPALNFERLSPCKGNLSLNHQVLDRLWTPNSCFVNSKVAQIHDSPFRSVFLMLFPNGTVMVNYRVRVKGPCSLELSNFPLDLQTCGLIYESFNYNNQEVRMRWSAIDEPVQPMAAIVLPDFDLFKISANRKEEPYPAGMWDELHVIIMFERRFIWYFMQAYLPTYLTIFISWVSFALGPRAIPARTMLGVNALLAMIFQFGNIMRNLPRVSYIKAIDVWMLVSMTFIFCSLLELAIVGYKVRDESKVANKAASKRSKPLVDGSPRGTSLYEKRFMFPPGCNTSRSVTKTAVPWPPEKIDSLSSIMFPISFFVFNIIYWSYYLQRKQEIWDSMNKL

[2] = target: T2, Hco-ACC-2 W248Y (Haemonchus contortus, UniProt A0A219KWM7, W248Y); experiment: Two-electrode voltage clamp of Hco-ACC-2 W248Y mutant in Xenopus laevis oocytes
T2 sequence (A0A219KWM7 18-443 W248Y): T1 sequence (A0A219KWM7 18-443 F200W)

[3] = target: T3, Hco-ACC-2 F200W/W248F (Haemonchus contortus, UniProt A0A219KWM7, F200W/W248F)
T3 sequence (A0A219KWM7 18-443 F200W/W248F): T1 sequence (A0A219KWM7 18-443 F200W)

[4] = target: T4, Hco-ACC-2 F200Y (Haemonchus contortus, UniProt A0A219KWM7, F200Y); experiment: Two-electrode voltage clamp of Hco-ACC-2 F200Y mutant in Xenopus laevis oocytes
T4 sequence (A0A219KWM7 18-443 F200Y): T1 sequence (A0A219KWM7 18-443 F200W)

[5] = target: T5, Hco-ACC-2 W248F (Haemonchus contortus, UniProt A0A219KWM7, W248F); experiment: Two-electrode voltage clamp of Hco-ACC-2 W248F mutant in Xenopus laevis oocytes
T5 sequence (A0A219KWM7 18-443 W248F): T1 sequence (A0A219KWM7 18-443 F200W)

## CC(=O)OCC[N+](C)(C)C [Acetylcholine]
[1]
  EC50: 61 ± 4 µM
[2]
  EC50: 7850 ± 275 µM
[3]
  EC50: > 20000 µM
[4]; EC50, F200Y mutant
  EC50: 3 ± 0.1 µM
[4]; EC50 ± standard error, F200Y, F200Y mutant, n ≥ 5 oocytes
  EC50: 2.9 ± 0.1 µM
[5]
  EC50: 5600 ± 1260 µM
